The list shows a part of the results, in another mix than the full data. Records with an inconclusive call do not appear. Entries that show only a call come without a potency. The source made the active and inactive calls. The call rests on the fitted dose curve; in most records, active means well fitted inhibition curve with a large enough effect in the signal ratio in the repeat runs (not every such curve was filed as active); inconclusive means weak or mixed curves; inactive means flat fitted curve, though single readings scatter; the % refers to the signal ratio.
Potency means the concentration at half of the fitted maximal effect.

Sequences of proteins named here, by UniProt entry; tags and fusion partners are left off.
UniProt P06401, whole entry: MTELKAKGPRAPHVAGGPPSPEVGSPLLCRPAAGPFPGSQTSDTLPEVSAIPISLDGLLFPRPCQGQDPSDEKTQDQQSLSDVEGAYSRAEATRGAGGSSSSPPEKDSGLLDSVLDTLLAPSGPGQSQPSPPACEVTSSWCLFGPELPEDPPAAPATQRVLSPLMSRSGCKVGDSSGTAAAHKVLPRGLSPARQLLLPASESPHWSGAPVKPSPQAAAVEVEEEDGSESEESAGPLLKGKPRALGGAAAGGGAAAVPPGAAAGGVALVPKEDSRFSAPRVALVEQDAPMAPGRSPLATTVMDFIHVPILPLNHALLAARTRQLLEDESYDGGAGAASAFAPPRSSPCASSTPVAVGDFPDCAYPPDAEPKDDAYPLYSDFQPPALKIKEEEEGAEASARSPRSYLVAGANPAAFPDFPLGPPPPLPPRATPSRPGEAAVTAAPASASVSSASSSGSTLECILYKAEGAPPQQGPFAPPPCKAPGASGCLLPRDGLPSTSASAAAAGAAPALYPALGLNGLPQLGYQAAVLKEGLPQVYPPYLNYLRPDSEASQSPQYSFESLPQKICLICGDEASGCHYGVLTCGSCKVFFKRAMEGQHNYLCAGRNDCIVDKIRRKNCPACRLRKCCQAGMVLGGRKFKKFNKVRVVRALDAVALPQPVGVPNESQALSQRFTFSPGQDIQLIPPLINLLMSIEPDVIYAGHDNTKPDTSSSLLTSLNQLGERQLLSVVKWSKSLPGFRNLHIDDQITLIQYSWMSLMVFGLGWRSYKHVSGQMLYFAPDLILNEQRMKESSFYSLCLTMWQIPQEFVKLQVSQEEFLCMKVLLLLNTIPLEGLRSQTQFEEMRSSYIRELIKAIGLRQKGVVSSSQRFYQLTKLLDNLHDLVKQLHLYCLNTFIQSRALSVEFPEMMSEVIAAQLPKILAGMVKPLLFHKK

The target in the experiment is Progesterone receptor (Homo sapiens) (UniProt P06401). Kind of experiment: qHTS assay to identify small molecule antagonists of the progesterone receptor (PR) signaling pathway (AID 1346795). The settings on record: PR-UAS-bla HEK293T, beta-lactamase FRET ratio, 16 h; series mostly up to 92.4 µM. An excerpt:
National Center for Advancing Translational Sciences [NCATS]
NIH Chemical Genomics Center [NCGC]
U.S. Environmental Protection Agency [EPA]
National Institutes of Environmental Health Sciences [NIEHS]
National Toxicology Program [NTP]
U.S. Food and Drug Administration [FDA]
Progesterone receptor (PR), a nuclear hormone receptor, plays an important role in development, metabolic homeostasis and reproduction. […] Endocrine disrupting chemicals (EDCs) and their interactions with steroid hormone receptors like PR causes disruption of normal endocrine function. To identify the compounds that inhibit PR signaling, a PR-UAS-bla GripTite cell line i.e. PR-UAS-bla HEK293T (Invitrogen, Carlsbad, CA, USA) containing a beta-lactamase reporter gene under the control of an Upstream Activator Sequence (UAS) was used to screen Tox21 10K compound library.
Tox21 Assay Protocol Summary:
PR-UAS-bla HEK293T cells were dispensed at 3,000 cells/4 uL of assay medium containing 2% charcoal stripped FBS per well into black wall/clear-bottom 1536-well plates using a Multidrop Combi (ThermoFisher Scientific, Waltham, MA) dispenser. After the assay plates were incubated at a 37C and 5% CO2 for 6 hr, 23 nL of compounds dissolved in DMSO, positive controls or DMSO only was transferred to the assay plate by a Pintool station (Kalypsys, San Diego, CA), followed by addition of 1 uL (1nM as final concentration) of Promegestone (R5020) in assay medium using a BioRAPTR FRD (Flying Reagent Dispenser, Aurora Discovery, San Diego, CA). The plates were incubated at 37C and 5% CO2 for 16 hr. Then 1 uL of LiveBLAzer B/G FRET substrate was added using a FRD. After the plates were incubated at room temperature for 2 hours, fluorescence intensity was measured by an Envision plate reader (PerkinElmer, Shelton, CT).
(Quantitative high-throughput screening tests each substance at several concentrations.)
`Cc1ccc([N+](=O)[O-])cc1[N+](=O)[O-]`: the Potency entry is “inactive”.

As for `CN(C)CCCl`, the Potency entry is “inactive”.

In the case of `[NH4+].[O-][Cl+3]([O-])([O-])[O-]`, the Potency result is “inactive”.

Regarding `Cc1c([N+](=O)[O-])cccc1[N+](=O)[O-]`, the Potency result was “inactive”.

On to `CP(=O)(O)OCCC[Si](O)(O)O`, for which the Potency result was “inactive”.

In the case of `CCN(CC)CCCl`, the Potency entry is “inactive”.

As for `COP(C)(=O)OC`, the Potency entry was “inactive”.

With `N=C(N)N[N+](=O)[O-]`, the Potency entry is “inactive”.

As for `CC(C)N(CCO)C(C)C`, the Potency entry was “inactive”.

For the molecule `O=[N+]([O-])OCC(CO[N+](=O)[O-])(CO[N+](=O)[O-])CO[N+](=O)[O-]`, the Potency result was “inactive”.

As to `N#CBr`, the Potency result was “inactive”.

Consider `CCOP(=O)(CC)Oc1ccc([N+](=O)[O-])cc1` (stereo unspecified), for which the Potency was active: 9.44 µM.

As to `C/C1=C2N=C(/C=C3N=C(/C(C)=C4\[N-][C@@](C)([C@@H]5N=C1[C@](C)(CCC(=O)NC[C@@H](C)OP(=O)([O-])O[C@H]1[C@@H](O)[C@@H](n6cnc7cc(C)c(C)cc76)O[C@@H]1CO)[C@H]5CC(N)=O)[C@@](C)(CC(N)=O)[C@@H]4CCC(N)=O)[C@@](C)(CC(N)=O)[C@@H]\3CCC(N)=O)C(C)(C)[C@@H]/2CCC(N)=O.[C-]#N.[Co+3]`, the Potency entry was “inactive”.

On to `COc1ccc([N+](=O)[O-])cc1[N+](=O)[O-]`, for which the Potency entry is “inactive”.

Turning to `O=[N+]([O-])[O-].[NH4+]`, the Potency entry is “inactive”.

Turning to `CC(C)OP(C)(=O)OC(C)C`, the Potency result was “inactive”.
